Test results published in patent US20020034534A1, “System and method for delivering a therapeutic agent over an extended period of time in conjuction with a receptor loading dose of the therapeutic agent” (priority 1999, published 2002).

Tested on: opioid receptors

With `C=CCN1CC[C@]23c4c5ccc(O)c4O[C@H]2C(=O)CC[C@@]3(O)[C@H]1C5` [naloxone] the “effect of reversing morphine, pellet only phase” value (1 mg naloxone after total of 50 mg morphine) was “return to a baseline level of withdrawal symptoms” and the “effect of reversing morphine, pellet plus oral naltrexone phase” value (Narcan 2 mg after morphine) was “no change in their withdrawal symptoms”.
